This series is described as follows: Stability and water solubility of the salt.

Consider “12H-indolo[2,3-a]quinolizin-5-ylium sulfate [sulfate salt of de-ethylflavopereine]”, for which the “stability and water solubility” value is “stable and water soluble”.

For the origin of these results see patent publication US11083714B2, “Selective anti-cancer agent effective for prevention and treatment” (Molecular International Research, Inc., priority 2018, dated 2021).
